Experimental data taken from publication PMC7222171 (Cellular and Molecular Immunology, 2020).

Protein sequences, listed by entry. Tags and fused reporters are not part of them. Residues count along the entry.
UniProt Q9WMX2, 384-661: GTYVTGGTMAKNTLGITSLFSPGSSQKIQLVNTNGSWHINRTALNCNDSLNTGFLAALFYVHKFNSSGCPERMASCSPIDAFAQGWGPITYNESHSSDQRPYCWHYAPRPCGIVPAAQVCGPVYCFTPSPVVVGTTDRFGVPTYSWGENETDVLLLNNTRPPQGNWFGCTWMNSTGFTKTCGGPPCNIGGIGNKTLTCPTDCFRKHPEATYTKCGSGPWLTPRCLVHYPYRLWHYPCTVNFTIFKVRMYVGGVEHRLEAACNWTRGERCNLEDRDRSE

Target: Con1 E2 soluble fragment, amino acids 384–661 (wild type) (Hepatitis C virus genotype 1b, Con1, UniProt Q9WMX2)
Test: ELISA

B1: AR3C (antibody, V domains shown)
VH: VQLLEQSGAEVKKPGSSVKVSCETSGGTFDNYALNWVRQAPGQGLEWIGGVVPLFGTTRNAQKFQGRVTISDDKSTGTGHMELRSLRSEDTAVYYCVRSVTPRYCGGGFCYGEFDYWGQGTLVTVSS
VL: EIELTQSPATLSVSPGERATLSCRASQSVSSNLAWYQQKPGQAPRLLIYGASTRATGIPARFSGSGSGTEFTLTVSRLEPEDSAVYFCQQYYRSPLTFGGGTKVEIK
binding result: binds
